Values belong to the molecule of their own block, whether it stands above or below them.
Columns and labels:
[1] = system: human acute monocytic leukemia cell strain MV4-11 (expressing FLT3/ITD mutant gene); assay: CCK-8 cancer cell proliferation assay; settings: read-out: MV-411 IC50; incubated for 72 hours, CCK-8, absorbance at 450 nm
Method: (§1) The inhibitory effect on cancer cell proliferation was assessed by measuring the effect of D18 and deuterated series drugs on cancer cell proliferation. Human acute monocytic leukemia cell strain MV4-11 (expressing FLT3/ITD mutant gene) and human acute myeloid leukemia cell strain MOLM-13 (expressing FLT3/ITD mutant gene and wild-type FLT3 gene) were selected. Different concentrations of the above compounds (25 nM, 50 nM, 100 nM, 200 nM, 400 nM in DMSO) were added to the above cells and incubated for 72 hours. The Cell Counting Kit-8 (CCK-8) reagent was used to detect the absorbance at 450 nm using a microplate reader to obtain OD values, and IC50 was further calculated. The experimental results are shown. Table 1 IC50 values of compounds against MOLM-13 and MV4-11 cells

[2] = system: human acute myeloid leukemia cell strain MOLM-13 (expressing FLT3/ITD mutant gene and wild-type FLT3 gene); assay: CCK-8 cancer cell proliferation assay; settings: read-out: MOLM-13 IC50; incubated for 72 hours, CCK-8, absorbance at 450 nm
Method: as §1

[3] = system: MOLM-13 cells carrying the FLT3/ITD mutation gene; assay: Soft agar colony formation assay; settings: 2.5 nM, 5 nM, 10 nM, 20 nM, 15 days, FIG. 3; for size of clones formed by MOLM-13 cells: when the drug dosage was increased
Method: (§2) The proliferation ability of MOLM-13 and MV-4-11 cells carrying the FLT3/ITD mutation gene was assessed by soft agar colony formation assay. The two compounds at different concentrations (2.5 nM, 5 nM, 10 nM, 20 nM in DMSO) were applied to MOLM-13 and MV-4-11 cell strains carrying the FLT3/ITD mutation gene. The time required for sufficient colony formation was typically 15 days, with medium changed twice a week.

[4] = system: MV-4-11 cells carrying the FLT3/ITD mutation gene; assay: Soft agar colony formation assay; settings: 2.5 nM, 5 nM, 10 nM, 20 nM, 15 days, FIG. 3; for size of clones formed by MV4-11 cells: when the drug dosage was increased
Method: as §2

MOLM-13 cells [5] = assay: Nude mouse subcutaneous tumor-bearing model; settings: 50 mg/kg daily oral gavage, 2 to 3 weeks; FIG. 4
Method: To assess the tumor inhibitory effect in vivo, a nude mouse subcutaneous tumor-bearing model was introduced. More than 30 five-week-old mice (Balb/c-nu male mice, purchased from Hangzhou Ziyuan Experimental Animal Technology Co., Ltd.) were subcutaneously inoculated with MOLM-13 cells at 1×10^7 cells per mouse. The body weight changes and tumor volume (tumor volume = tumor length × tumor width^2 / 2) of the mice were recorded daily. After 10 days, when the mouse tumor volume reached 200-400 mm^3, the mice were randomly divided into 3 groups: vehicle group, D18 50 mg/kg dose group, and D18-D6 50 mg/kg dose group, with 6-10 mice per group. The following treatments were administered: Group 1 received daily oral gavage of vehicle (a liquid mixture formulation of 5% DMSO, 40% PEG-400, and 55% physiological saline); Group 2 received daily oral gavage of D18 liquid mixture formulation at 50 mg/kg; Group 3 received daily oral gavage of D18-D6 liquid mixture formulation at 50 mg/kg. The day of first administration was recorded as day 0, and administration was continued daily for 2 to 3 weeks of observation.

MOLM-13 cells [6] = assay: Cell cycle distribution by PI staining and flow cytometry; settings: 100 nM, 200 nM, 300 nM, 400 nM; 24 hours of treatment; FIG. 1
Method: (§3) The effects of D18 and D18-D6 on the cell cycle distribution of human acute monocytic leukemia cell strain MV4-11 and acute myeloid leukemia cell strain MOLM-13 were tested. The two compounds at different concentrations (100 nM, 200 nM, 300 nM, 400 nM in DMSO) were applied to acute myeloid leukemia cell MV4-11 and MOLM-13 cell strain carrying the FLT3/ITD mutation gene. After 24 hours of treatment, cells were collected, washed twice with 1X PBS buffer solution, fixed with 75% ethanol at -20°C for 24 hours, and washed twice again with 1X PBS buffer. 0.5 mL 1X PBS buffer and 0.5 mL PI staining solution (purchased from BD Bioscience, USA) were added to the cells, and the cells were placed in the dark at 37°C for 15 minutes for staining. Cell cycle distribution was detected using a flow cytometer (BD FACS Calibur). Data were analyzed using FlowJo software (Ashland, OR).

MV4-11 cells = assay: as above; settings: 100 nM, 200 nM, 300 nM, 400 nM; 24 hours of treatment; FIG. 2
Method: as §3

[7] = Pharmacokinetic properties in rats after intravenous and oral administration; settings: for CLz / Cmax / MRT(0-∞) / T1/2 / Tmax / Vz / F / AUC(0-1) / AUC(0-∝) / MRT(0-∝): mean
Excerpt: The present invention also evaluated the pharmacokinetic (PK) properties of D18 and D18-D6 in rats following intravenous and oral administration. […] Table 2 Pharmacokinetic properties of D18

Compound: [2H]c1nc(N)c2c(-c3ccc(Oc4c([2H])c([2H])c([2H])c([2H])c4[2H])cc3)nn([C@@H]3CCCN(C(=O)C([2H])([2H])N(C)C)C3)c2n1
IC50 [1]: 1250 nM
IC50 [2]: 1340 nM

Compound: [2H]c1nc(N)c2c(-c3ccc(Oc4c([2H])c([2H])c([2H])c([2H])c4[2H])cc3)nn([C@@H]3CCCN(C(=O)C([2H])([2H])N(C([2H])([2H])[2H])C([2H])([2H])[2H])C3)c2n1
IC50 [1]: 1450 nM
IC50 [2]: 1230 nM

Compound: [2H]c1c([2H])c([2H])c(Oc2ccc(-c3nn([C@@H]4CCCN(C(=O)C([2H])([2H])N(C)C([2H])([2H])[2H])C4)c4ncnc(N)c34)cc2)c([2H])c1[2H]
IC50 [1]: 730 nM
IC50 [2]: 850 nM

Compound: [2H]c1nc(N)c2c(-c3ccc(Oc4c([2H])c([2H])c([2H])c([2H])c4[2H])cc3)nn([C@@H]3CCCN(C(=O)C([2H])([2H])N(C)C([2H])([2H])[2H])C3)c2n1
IC50 [1]: 1250 nM
IC50 [2]: 1450 nM

Compound: [2H]C([2H])(C(=O)N1CCC[C@@H](n2nc(-c3ccc(Oc4ccccc4)cc3)c3c(N)ncnc32)C1)N(C)C
IC50 [1]: 610 nM
IC50 [2]: 520 nM

The next molecules have a lower IC50 [1] than those just listed; values first:

IC50 [1]: 560 nM
IC50 [2]: 450 nM
Compound: [2H]c1c([2H])c([2H])c(Oc2ccc(-c3nn([C@@H]4CCCN(C(=O)CN(C)C([2H])([2H])[2H])C4)c4ncnc(N)c34)cc2)c([2H])c1[2H]

IC50 [1]: 530 nM
IC50 [2]: 570 nM
Compound: [2H]C([2H])([2H])N(C([2H])([2H])[2H])C([2H])([2H])C(=O)N1CCC[C@@H](n2nc(-c3ccc(Oc4ccccc4)cc3)c3c(N)ncnc32)C1

IC50 [1]: 490 nM
IC50 [2]: 450 nM
Compound: [2H]c1c([2H])c([2H])c(Oc2ccc(-c3nn([C@@H]4CCCN(C(=O)CN(C)C)C4)c4ncnc(N)c34)cc2)c([2H])c1[2H]

IC50 [1]: 451 nM
IC50 [2]: 560 nM
Compound: [2H]C([2H])([2H])N(C)C([2H])([2H])C(=O)N1CCC[C@@H](n2nc(-c3ccc(Oc4ccccc4)cc3)c3c(N)ncnc32)C1

IC50 [1]: 62 nM
IC50 [2]: 81 nM
bioavailability [7]: approximately 35.93%
half-life ([7]; iv): approximately 1.5 h
AUC(0-1) ([7]; iv(tmg/kg)): 684.615 ng·h/mL
AUC(0-∝) ([7]; iv(tmg/kg)): 695.331 ng·h/mL
CLz ([7]; iv(tmg/kg)): 24.8 mL/min/kg
Cmax ([7]; iv(tmg/kg)): 767.665 ng/mL
MRT(0-∝) ([7]; iv(tmg/kg)): 1.49 h
T1/2 ([7]; iv(tmg/kg)): 1.537 h
Tmax ([7]; iv(tmg/kg)): 0.017 h
Vz ([7]; iv(tmg/kg)): 3.304 L/kg
half-life ([7]; po): 3.6 h
AUC(0-1) ([7]; po(10mg/kg), Table 2): 2465.816 ng·h/mL
AUC(0-∝) ([7]; po(10mg/kg), Table 2): 2498.188 ng·h/mL
CLz ([7]; po(10mg/kg), Table 2): 68.78 mL/min/kg
Cmax ([7]; po(10mg/kg), Table 2): 304.121 ng/mL
F ([7]; po(10mg/kg), Table 2): 35.93%
MRT(0-∝) ([7]; po(10mg/kg), Table 2): 5.646 h
T1/2 ([7]; po(10mg/kg), Table 2): 3.646 h
Tmax ([7]; po(10mg/kg), Table 2): 3 h
Vz ([7]; po(10mg/kg), Table 2): 21.50 L/kg
Compound: CN(C)CC(=O)N1CCC[C@@H](n2nc(-c3ccc(Oc4ccccc4)cc3)c3c(N)ncnc32)C1
size of clones formed by MOLM-13 cells [3]: significantly reduced in size
size of clones formed by MV4-11 cells [4]: significantly reduced in size
increase in mouse tumor volume (MOLM-13 cells [5]): significantly slowed
mouse tumor growth (MOLM-13 cells [5]): significantly inhibited
cell cycle of MOLM-13 cells (MOLM-13 cells [6]): arrested in the G0-G1 phase in a dose-dependent manner
cell cycle of MV4-11 cells (MV4-11 cells): arrested in the G0-G1 phase in a dose-dependent manner

IC50 [1]: 42 nM
IC50 [2]: 48 nM
Compound: [2H]C([2H])([2H])N(C)CC(=O)N1CCC[C@@H](n2nc(-c3ccc(Oc4ccccc4)cc3)c3c(N)ncnc32)C1

IC50 [1]: 27 nM
IC50 [2]: 31 nM
bioavailability [7]: approximately 42.51%
half-life ([7]; iv): approximately 1.9 h
CLz ([7]; iv(1mg/kg)): 33.7 mL/min/kg
Cmax ([7]; iv(1mg/kg)): 422.341 ng/mL
MRT(0-∞) ([7]; iv(1mg/kg)): 2.393 h
T1/2 ([7]; iv(1mg/kg)): 1.898 h
Tmax ([7]; iv(1mg/kg)): 0.136 h
Vz ([7]; iv(1mg/kg)): 5.661 L/kg
half-life ([7]; po): 4.3 h
CLz ([7]; po(10mg/kg), Table 3): 83.28 mL/min/kg
Cmax ([7]; po(10mg/kg), Table 3): 184.886 ng/mL
F ([7]; po(10mg/kg), Table 3): 42.51%
MRT(0-∞) ([7]; po(10mg/kg), Table 3): 5.957 h
T1/2 ([7]; po(10mg/kg), Table 3): 4.333 h
Tmax ([7]; po(10mg/kg), Table 3): 2.583 h
Vz ([7]; po(10mg/kg), Table 3): 30.65 L/kg
Compound: [2H]C([2H])([2H])N(CC(=O)N1CCC[C@@H](n2nc(-c3ccc(Oc4ccccc4)cc3)c3c(N)ncnc32)C1)C([2H])([2H])[2H]
size of clones formed by MOLM-13 cells [3]: significantly reduced in size
number of colonies ([3]; MOLM-13): markedly reduced
size of clones formed by MV4-11 cells [4]: significantly reduced in size
number of colonies ([4]; MV4-11): markedly reduced
increase in mouse tumor volume (MOLM-13 cells [5]): hardly grew
mouse tumor growth (MOLM-13 cells [5]): strongly inhibited
cell cycle of MOLM-13 cells (MOLM-13 cells [6]): arrested in the G0-G1 phase in a dose-dependent manner
cell cycle of MV4-11 cells (MV4-11 cells): arrested in the G0-G1 phase in a dose-dependent manner
